Results published in PubChem BioAssay AID485297 (National Center for Advancing Translational Sciences (NCATS), 2010).
Values joined by “and” are separate entries in the source; they are usually repeats but may differ in a detail not shown here. Identical values can stand only once. The entries are a selection whose mix differs from that of the whole data set. Records with an inconclusive call do not appear. Active and inactive are the calls of the source. The call rests on the fitted dose curve; in most records, active means well fitted activation curve with a large enough effect; inconclusive means small, poorly fitted or top-dose-only effect; inactive means no such curve, though single readings can be large or run the other way.

test: qHTS Assay for Rab9 Promoter Activators; settings: Huh7 Rab9 promoter-luciferase reporter, luminescence, 24 h; at 9.22 µM (top of the series) unless noted; further: % of control where 0% means no effect; nearly all actives have a fitted effect of over 60% in size

| Structure (SMILES) | activation, negative = inhibition |
| --- | --- |
| CC(C)(C)C(=O)NC(Sc1ccccc1)C(Cl)(Cl)Cl (configuration not stated) | inactive: 0.324% |
| O=P1(Nc2nc3ccc(Cl)cc3s2)COc2ccccc2O1 (configuration not stated) | inactive: -7.02% |
| CC(=O)Nc1ccc(Oc2c([N+](=O)[O-])cc([N+](=O)[O-])cc2[N+](=O)[O-])cc1 | inactive: -2.86% |
| CC(=O)Nc1ccc([As](=O)(O)O)c(O)c1 | inactive: -2.45% |
| CC(=O)c1ccc(N2CC2c2ccncc2)cc1 (configuration not stated) | inactive: -1.19% |
| C[C@H]1OP(=O)(Oc2ccccc2)C[C@@H]2O[C@@H]21 (some centres not stated) | inactive: -2.4% |
| C[C@@H]1C=CCP(=O)(Oc2ccccc2)O1 (some centres not stated) | inactive: -7% |
| O=C(NC1CCS(=O)(=O)C1)NP(=S)(Oc1ccccc1)Oc1ccccc1 (configuration not stated) | inactive: 21.7% |
| CCNC(=S)/N=C(\N)N[N+](=O)[O-] | inactive: -9.48% |
| CCOC(=O)NC(Sc1ccccc1)C(Cl)(Cl)Cl (configuration not stated) | inactive: -8.48% |
| Cc1ccc(NP(=O)(Oc2cccc(C)c2)Oc2cccc(C)c2)nc1 | inactive: -4.93% |
| c1ccc(-c2nn[nH]n2)c(-c2nn[nH]n2)c1 | inactive: -4.09% |
| O=c1c2cc([N+](=O)[O-])ccc2[nH]c2c([N+](=O)[O-])cc([N+](=O)[O-])cc12 | inactive: -49.7% |
| CN(C)C(=O)Oc1noc2ccccc12 | inactive: -11.8% |
| Cc1ccccc1OP(=O)(Nc1ccccn1)Oc1ccccc1C | inactive: 0.903% |
| Cc1ccc(OP(=O)(Nc2ccccn2)Oc2ccc(C)cc2)cc1 | inactive: 0.647% |
| CC(=O)NC(SC(=S)N(CC(C)C)CC(C)C)C(Cl)(Cl)Cl (configuration not stated) | inactive: -3.66% |
| COC(=O)c1cc2c(s1)N=C(c1ccccc1)N(C)P2(=O)N1CCOCC1 (configuration not stated) | inactive: 8.82% |
| CCC(=O)N1C2C3N(C(=O)CC)C1C1N(C(=O)CC)C(C(N1C(=O)CC)N3C(=O)CC)N2C(=O)CC | inactive: -0.369% |
| O=C(OC1CN2CCC1CC2)c1ccccc1 (configuration not stated) | inactive: -4.58% |
| CN(C(=O)Cc1ccc(Cl)c(Cl)c1)[C@@H]1CCCC[C@@H]1N1CCCC1 | inactive: -17.1% [at 46.1 µM] |
| C[C@H]1OP(=O)(Oc2ccccc2)[C@H](O)[C@H](O)[C@H]1N=[N+]=[N-] (some centres not stated) | inactive: 0.32% |
| O=P(Nc1nc2ccccc2s1)(c1ccccc1)c1ccccc1 | inactive: -1.33% |
| CN(C)C1(CNC(=O)c2ccc(Cl)c(S(N)(=O)=O)c2)CCCCC1 | inactive: -4.69% |
| O=P(Nc1ccccn1)(c1ccc(Br)cc1)c1ccc(Br)cc1 | inactive: -2.32% |

| Structure (SMILES) | activation, negative = inhibition |
| --- | --- |
| C(Cc1nn[nH]n1)Cc1nn[nH]n1 | inactive: 6.01% |
| Nc1ccc([As](=O)(O)c2ccc([N+](=O)[O-])cc2)cc1 | inactive: -9.97% |
| O=C(OC1CN2CCC1CC2)c1cccc(Cl)c1 (configuration not stated) | inactive: -2.66% |
| O=[N+]([O-])c1ncn(CCn2cnc([N+](=O)[O-])n2)n1 | inactive: 1.12% |
| CC(=O)NC(SC(=S)N(C)C)C(Cl)(Cl)Cl (configuration not stated) | inactive: -22.7% |
| O=[N+]([O-])c1ccc(O)c(/C=N/Nc2ccc([N+](=O)[O-])cc2[N+](=O)[O-])c1 | inactive: -38.2% |
| O=[As](O)(c1ccccc1)c1ccc(O)cc1 | inactive: -2.9% |
| c1nnnn1CCn1cnnn1 | inactive: 4.49% |
| O=P(Nc1nccs1)(c1ccccc1)c1ccccc1 | inactive: -0.718% |
| CC(C)C(=O)NC(Sc1ccccc1)C(Cl)(Cl)Cl (configuration not stated) | inactive: 2.26% |
| CC(=O)N1C2C3N(C(C)=O)C1C1N(C(C)=O)C(C(N1C(C)=O)N3C(C)=O)N2C(C)=O | inactive: -1.07% |
| O=[N+]([O-])c1cccc2n[nH]nc12 | inactive: -1.04% |
| O=[N+]([O-])c1cc([N+](=O)[O-])c(CCNc2ccccc2)c([N+](=O)[O-])c1 | inactive: 8.55% |
| CCc1nc2c(n1)c1c(non1O)c1c2no[n+]1[O-] | inactive: -52.2% |
| Cc1ccc(NP(=O)(Oc2ccccc2)Oc2ccccc2)nc1 | inactive: 1.8% |
| COc1ccc(C2=NCC(CBr)S2)cc1 (configuration not stated) | inactive: 12.1% |
| CN(C)C(=O)OCCc1n(C)cc[n+]1C | inactive: -4.19% |
| CC(C)=N/N=C(\N)N[N+](=O)[O-] | inactive: 0.0679% |
| CC1CCN(C(=O)Oc2c(Cl)cc(Cl)c3cccnc23)CC1 | inactive: 26.8% |
| Nc1ccc([As](=O)(O)c2ccc(N)cc2)cc1 | inactive: -3.31% |
| CCN(/C(=N/P(=O)(N1CCOCC1)N1CCOCC1)N1CCOCC1)c1ccc(OC)cc1 | inactive: 0.589% |
| O=C(Nc1cc([As](=O)(O)O)ccc1O)c1ccccc1 | inactive: 0.419% |
| O=[N+]([O-])c1cccc(NC2=NCC(CBr)S2)c1 (configuration not stated) | inactive: 0.308% |
| O=C(O)CNc1ccc([As](=O)(O)O)cc1 | inactive: -0.673% |
| CC(C)(C)C(=O)NC(Sc1ccncn1)C(Cl)(Cl)Cl (configuration not stated) | inactive: -0.723% |

| Structure (SMILES) | activation, negative = inhibition |
| --- | --- |
| O=[N+]([O-])c1ncn(CCn2ncnc2[N+](=O)[O-])n1 | inactive: -1.78% |
| CN(C(=O)Cc1ccc(Cl)c(Cl)c1)[C@H]1CCCC[C@@H]1N1CCCC1 | inactive: -31.3% [at 46.1 µM] and inactive: -16.9% [at 46.1 µM] |
| Cc1ccc(NP(=O)(Oc2ccccc2F)Oc2ccccc2F)nc1 | inactive: 0.122% |
| Cc1cc(SC(NC(=O)c2ccc(F)cc2)C(Cl)(Cl)Cl)ncn1 (configuration not stated) | inactive: 2.25% |
| CCOP(=O)(Nc1ccccc1)OCC | inactive: -1.87% and inactive: -2.94% |
| CC(=O)Nc1ccc([As](=O)(O)O)cc1 | inactive: -1.14% [at 1.84 µM] |
| O=C(O)c1ccccc1[As](=O)(O)O | inactive: 1.77% |
| O=P(Nc1nc2ccc(Cl)cc2s1)(c1ccccc1)c1ccccc1 | inactive: -6.72% |
| CCN(N=Nc1nonc1N)c1nonc1N | inactive: -6.68% |
| Nc1cccc2ccc([As](=O)(O)O)cc12 | inactive: -2.94% |
| O=[N+]([O-])c1cc([N+](=O)[O-])c(CCN2CCOCC2)c([N+](=O)[O-])c1 | inactive: 0.496% [at 1.84 µM] |
| Cc1ccc(OP(=O)(Nc2nccs2)Oc2ccc(C)cc2)cc1 | inactive: 0.126% |
| COc1ccccc1OP(=O)(Nc1ccc(C)cn1)Oc1ccccc1OC | inactive: -1.9% |
| CN1CCCC(OC(=O)C(c2ccccc2)c2ccccc2)C1 (configuration not stated) | inactive: -1.88% |
| Clc1ccc(Cl)c(NC2=NCC(CBr)S2)c1 (configuration not stated) | inactive: -5.17% |
| NC(=O)c1cc([N+](=O)[O-])cc([N+](=O)[O-])c1N | inactive: 8.47% |
| Cc1ccc(N/C(=N/P(=O)(N2CCOCC2)N2CCOCC2)N2CCOCC2)cc1 | inactive: -1.71% |
| CN(C(=O)Cc1ccc(Cl)c(Cl)c1)[C@H]1CCCC[C@H]1N1CCCC1 | inactive: -1.87% |
| Nc1cc(N)c2nonc2c1[N+](=O)[O-] | inactive: -1.58% |
| CC(C)CC(=O)NC(Sc1ccc(Cl)cc1)C(Cl)(Cl)Cl (configuration not stated) | inactive: -5.51% |
| O=C(NC(Sc1ccncn1)C(Cl)(Cl)Cl)c1ccccc1 (configuration not stated) | inactive: -1.42% |
| Cc1c2non([O-])c-2c(C)[n+](=O)[n+]1[O-] | inactive: 0.545% |
| Oc1ccccc1CNc1ccccn1 | inactive: 13.2% |
| COc1cc(I)ccc1[As](=O)(O)O | inactive: 0.391% |
| COc1ccc2nc(NP(=O)(c3ccccc3)c3ccccc3)sc2c1 | inactive: 0.0109% |

| Structure (SMILES) | activation, negative = inhibition |
| --- | --- |
| Cc1cc(=O)[nH]c(N[N+](=O)[O-])n1 | inactive: -4.84% |
| O=C(OC1CN2CCC1CC2)C12CC3CC(CC(C3)C1)C2 (configuration not stated) | inactive: 1.91% |
| Cc1c2c(nc3ccccc13)SC(C(Cl)Cl)C2 (configuration not stated) | inactive: -0.384% |
| COc1ccc(N/C(=N/P(=O)(N2CCOCC2)N2CCOCC2)N2CCOCC2)cc1 | inactive: -10.6% |
| Cc1ccc2nc3c(c(C)c2c1)CC(C(Cl)Cl)S3 (configuration not stated) | inactive: -3.88% |
| Cc1ccc(OP(=O)(Nc2ccc([N+](=O)[O-])cn2)Oc2ccc(C)cc2)cc1 | inactive: 0.889% |
| COc1cc(C(=O)NCC2(N3CCOCC3)CCCCC2)ccc1OCC(C)C | inactive: -6.22% |
| O=[As](O)(c1ccc(O)cc1)c1ccccc1O | inactive: -1.66% |
| C[As](=O)(O)c1cccc(C(=O)O)c1 | inactive: 2.28% [at 1.84 µM] |
| O=[N+]([O-])c1cc([N+](=O)[O-])c(-c2ccn[nH]2)s1 | inactive: -16.2% |
| CC(C)NC(=O)NP(=O)(Oc1ccccc1)Oc1ccccc1 | inactive: -0.391% |
| CCN(CC)C(=S)SC(NC=O)C(Cl)(Cl)Cl (configuration not stated) | inactive: -13.5% |
| CC(C)c1ccc(OP(=O)(Nc2ccccn2)Oc2ccccc2F)cc1 (configuration not stated) | inactive: -9.8% |
| ClCCSc1nnc(-c2cccnc2)o1 | inactive: -2.84% |
| Cc1cc(SC(NC(=O)c2ccccc2)C(Cl)(Cl)Cl)nc(C(C)C)n1 (configuration not stated) | inactive: -0.727% |
| CCCCOc1ccc(C(=O)NCC2(N3CCCCC3)CCCCC2)cc1OC | inactive: -9.82% |
| CCOC(=O)Nc1ccc([As](=O)(O)O)c(O)c1 | inactive: -5.35% |
| O=[N+]([O-])c1ccc(Nc2ccc(Oc3ccc([N+](=O)[O-])cc3[N+](=O)[O-])cc2)c([N+](=O)[O-])c1 | inactive: -2.09% |
| Cc1cc(SC(NC=O)C(Cl)(Cl)Cl)ncn1 (configuration not stated) | inactive: 5.12% |
| O=P(Nc1ccccn1)(c1cccc2ccccc12)c1cccc2ccccc12 | inactive: -0.975% |
| CCOC(=O)Nc1cccc([As](=O)(O)O)c1 | inactive: -2.8% [at 1.84 µM] |
| O=C(Nc1ccncc1[N+](=O)[O-])c1ccc([N+](=O)[O-])cc1[N+](=O)[O-] | inactive: 13.8% |
